Experiments:
[1] = target: T1, VPAC1 receptor (CHO-K1/VPAC1 cells) (Homo sapiens, UniProt P32241); assay: competitive inhibition ELISA: binding of phage clone VP2 to CHO-K1/VPAC1 cells, inhibited by VIP; conditions: VIP 0-100 µg/ml; 1×10^10 pfu phage VP2, 37°C, 2 h
T1 construct: expressed in transfected cells

Amino acid sequences for entries named in this document (tags omitted). Residues count along the entry.
UniProt P32241, 31-457: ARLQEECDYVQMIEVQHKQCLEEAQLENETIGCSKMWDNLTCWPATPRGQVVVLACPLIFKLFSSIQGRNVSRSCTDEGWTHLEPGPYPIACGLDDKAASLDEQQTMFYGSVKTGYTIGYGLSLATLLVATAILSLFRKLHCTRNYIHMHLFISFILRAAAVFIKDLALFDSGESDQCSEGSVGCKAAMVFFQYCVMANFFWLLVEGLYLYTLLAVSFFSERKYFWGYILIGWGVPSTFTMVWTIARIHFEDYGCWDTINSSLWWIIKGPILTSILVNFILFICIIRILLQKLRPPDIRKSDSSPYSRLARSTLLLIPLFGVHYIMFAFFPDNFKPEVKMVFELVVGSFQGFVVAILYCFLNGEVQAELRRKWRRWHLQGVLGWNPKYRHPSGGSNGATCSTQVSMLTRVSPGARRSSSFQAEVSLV

[2] = target: T1, VPAC1 receptor (CHO-K1/VPAC1 cells); assay: flow cytometry, inhibition of FITC-VP2 binding to CHO-K1/VPAC1 cells; conditions: competitor (VIP 50 µM) + FITC-VP2 10 µM, 1 h, room temperature

## CC[C@H](C)[C@H](NC(=O)[C@H](CO)NC(=O)[C@H](CC(N)=O)NC(=O)[C@H](CC(C)C)NC(=O)[C@H](Cc1ccc(O)cc1)NC(=O)[C@H](CCCCN)NC(=O)[C@H](CCCCN)NC(=O)[C@@H](NC(=O)[C@H](C)NC(=O)[C@H](CCSC)NC(=O)[C@H](CCC(N)=O)NC(=O)[C@H](CCCCN)NC(=O)[C@H](CCCNC(=N)N)NC(=O)[C@H](CC(C)C)NC(=O)[C@H](CCCNC(=N)N)NC(=O)[C@@H](NC(=O)[C@H](Cc1ccc(O)cc1)NC(=O)[C@H](CC(N)=O)NC(=O)[C@H](CC(=O)O)NC(=O)[C@@H](NC(=O)[C@H](Cc1ccccc1)NC(=O)[C@@H](NC(=O)[C@H](C)NC(=O)[C@H](CC(=O)O)NC(=O)[C@H](CO)NC(=O)[C@@H](N)Cc1c[nH]cn1)C(C)C)[C@@H](C)O)[C@@H](C)O)C(C)C)C(=O)N[C@@H](CC(C)C)C(=O)N[C@@H](CC(N)=O)C(N)=O [VIP, vasoactive intestinal peptide]
[1]
  IC50, inhibition of phage clone VP2 binding: approximately 9.1 µg/ml
  concentration above which significant inhibition of phage clone VP2 binding occurred: above 0.001 µg/ml
[2]
  effect on FITC-VP2 binding to CHO-K1/VPAC1 cells: significantly inhibited

Reference: paper PMC3554773, “Screening of a Specific Peptide Binding to VPAC1 Receptor from a Phage Display Peptide Library” (PLoS ONE, 2013)
